Experimental data taken from patent US5556941A, “Glycopeptide derivatives, a process for their preparation and pharmaceutical agents containing these compounds” (Behringwerke Aktiengesellschaft, priority 1992, dated 1996).

Target: T1, trypsin from bovine pancreas (Bos taurus, UniProt P00760)
T1 construct: from tissue; host or cells: bovine pancreas
T1 sequence (P00760 24-246): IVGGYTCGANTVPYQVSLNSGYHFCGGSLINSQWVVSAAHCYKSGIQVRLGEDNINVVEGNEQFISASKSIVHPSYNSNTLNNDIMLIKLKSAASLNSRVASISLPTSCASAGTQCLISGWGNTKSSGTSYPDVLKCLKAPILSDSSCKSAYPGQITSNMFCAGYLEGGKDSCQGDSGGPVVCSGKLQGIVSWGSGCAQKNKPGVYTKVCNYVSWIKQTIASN
Test: Determination of the specificity of the inhibitors: Ki of trypsin, substrate Chromozyme TRY
Format: biochemical
Conditions: 0.5 nM bovine pancreas trypsin, pH 7.8, 37° C., 10 minute preincubation
Procedure: The specificity of the inhibitors towards thrombin and trypsin was determined. The Ki of trypsin was determined in an analogous manner to the determination of the Ki of thrombin. The reaction mixture was composed as follows--buffer: 200 mM triethanolamine, 20 mM CaCl2, pH 7.8; 37° C.; enzyme: 0.5 nM trypsin from bovine pancreas; substrate: 500 μM carbobenzoxy-L-valyl-glycyl-L-arginine-4-nitranilide (Chromozyme TRY, from Boehringer Mannheim). The enzymatic reaction was started after a 10 minute preincubation by addition of the substrate. The p-nitroaniline which was liberated was measured at 405 nm.

SMILES: N=C(N)c1ccc(CC(NC(=O)CNS(=O)(=O)c2ccc3ccccc3c2)C(=O)N2CCCCC2)cc1 (stereo not shown) [NAPAP, 2-N-(2-naphthalenesulfonylglycyl)-4-amidino-phenylalaninc piperidide, reference compound]
- Ki: 499 nM
